Measured values taken from patent US6465614B1, “High-affinity response-selective C-terminal analogs of C5a anaphylatoxin” (priority 1994, dated 2002).

Biological target: T1, human neutrophils (PMN) (Homo sapiens, UniProt P21730)
T1 sequence (P21730 1-350): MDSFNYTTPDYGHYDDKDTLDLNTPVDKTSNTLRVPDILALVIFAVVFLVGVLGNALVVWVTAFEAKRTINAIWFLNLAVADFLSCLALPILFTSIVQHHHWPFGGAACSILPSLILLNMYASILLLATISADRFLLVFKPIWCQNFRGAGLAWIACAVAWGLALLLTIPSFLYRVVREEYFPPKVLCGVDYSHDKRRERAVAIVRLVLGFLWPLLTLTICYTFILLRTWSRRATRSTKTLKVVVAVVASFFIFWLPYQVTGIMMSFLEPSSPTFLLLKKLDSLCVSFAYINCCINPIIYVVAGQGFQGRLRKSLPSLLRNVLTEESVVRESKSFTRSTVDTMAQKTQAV
Type: cell-based
Protocol: The release of glucuronidase from human neutrophils was determined as described by Schroder et al. (1987), J. Immunol., 139: 3474-3483. Briefly, human neutrophils were pretreated with cytochalasin B (5 μg/ml, 10 min, 37° C.). The cells (10^6) were incubated in the presence of stimulants for 60 minutes at 37° C. in a final volume of 200 μl and then centrifuged. The supernatant was collected and 50 μl were incubated with 50 μl of 0.01 M P-nitrophenyl-β-D-glucuronide (in 0.1 M sodium acetate at pH 4 for 18 h) as triplicate determinations in 96-well microtiter plates (Corning). The reaction was stopped by addition of 100 μl of 0.4 M gly buffer at pH 10. The reaction developed color that was read at 405 nm in a Titertec Multiscan (MCC/340) ELISA reader. The β-glucuronidase released was expressed as the percentage of total enzyme in the cell that could be released by addition of 0.2% Triton X-100 (Pierce).

EC50: 67.7 µM
Compound: CC[C@H](C)[C@H](N)C(=O)N[C@@H](CO)C(=O)N[C@@H](Cc1ccccc1)C(=O)N[C@@H](CCCCN)C(=O)N[C@@H](CC(=O)O)C(=O)N[C@@H](CCSC)C(=O)N[C@@H](CCC(N)=O)C(=O)N[C@@H](CC(C)C)C(=O)NCC(=O)N[C@@H](CCCNC(=N)N)C(=O)O [peptide 1]
